Among the data in PubChem BioAssay AID720553 (National Center for Advancing Translational Sciences (NCATS), 2013) are activity change values, retold here.

The entries are a selection whose mix differs from that of the whole data set. Some results for these compounds are left out of this collection, so the calls shown say nothing about other tests. The source made the active and inactive calls.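 Rule for the calls: active = maximum activity change below -70%; inconclusive = maximum activity change from -70% to -50%; inactive = maximum activity change above -50%.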
% is set by controls: 0 for no effect and ±100 for the full control effect.

The test system of the test is Potassium voltage-gated channel subfamily H member 2, brain isoform KCNH2 3.1 (human). Nature of the test: qHTS for Inhibitors of KCHN2 3.1: Mutant qHTS. Conditions: U2OS KCNH2 3.1, thallium flux FluxOr; hits give low values. The text has this: Many antipsychotic drugs that inhibit the neurotransmitter dopamine also bind to hERG1 channel which might help explain their antipsychotic activity but also produces cardiac side effects. The discovery of the novel KCNH2 3.1 isoform offers a potential new target for the development of antipsychotic drugs without cardiac side effects. This proposal will use a high throughput thallium flux assay developed for KCNH2 to screen compounds that modulate the activity of KCNH2 3.1. The wild type KCNH2 channel will also be screened in parallel to help define the selective modulators of this KCNH2 3.1 potassium channel. The resulting compounds will be validated in electrophysiology experiments. The availability of animal models will allow future testing in vivo for effects on memory and other aspects of animal physiology linked with psychosis. NIH Chemical Genomics Center [NCGC] NIH Molecular Libraries Probe Centers Network [MLPCN] MLPCN Grant: MH096539 Assay Submitter (PI): James Barrow, Johns Hopkins University, Lieber Institute for Brain Development
U2OS cells were resuspended in cell media containing 10% fetal calf serum (FCS) at a concentration of 2 million cells / mL. The solution was treated with the mutant (3.1) virus at 1.77 x 10^8 / mL and allowed to incubate at room temperature in the dark. After 4 hours of incubation, DMEM + 10% fetal bovine serum (FBS) was added to the cell solution. Three microliter was then dispensed into a 1536 tissue culture treated black assay plates which were incubated overnight at 37 C. Two microliter of loading buffer (HBSS + HEPES + Red40 dye quencher + FluxOr dye) was added and the assay plates were incubated for 45 min at room temperature in the dark. […] A stimulation buffer was added to the plate and the second kinetic read (2 min) was obtained. The rate constant was calculated from the kinetic reads and normalized to the positive and negative DMSO controls.
In general terms: In qHTS, concentration-response curves come from the screen itself.
On to `CCN(CC)CC(C)C(C)OC(=O)C(O)(c1ccccc1)c1ccccc1` (stereo unspecified), for which the activity change is inactive: -5.07%.

As to `COc1cc(SC)ccc1C(=O)NCC1(N(C)C)CCCCC1`, the activity change is inactive: 0.45%.

Take `CC(C)N1C(=O)CC2(CCN(CCOC(=O)C(O)(c3ccccc3)c3ccccc3)CC2)C1=O`: the activity change was inactive: 2.68%.

Regarding `Cc1ccc(C(=O)NCC2(N3CCCCC3)CCCCC2)cc1`, the activity change was inactive: -3.44%.

For the compound `O=C(NCC1(N2CCCCC2)CCCCC1)c1cc([N+](=O)[O-])ccc1Cl`, the activity change is inactive: 1.97%.

As for `CN1[C@@H]2CC[C@H]1CC(OC(=O)C(O)(c1ccccc1)c1ccccc1)C2` (stereo partly specified), the activity change is inactive: 7.95%.

For the compound `C=CCN1CCN(CCOC(=O)C(O)(c2ccccc2)c2ccccc2)CC1`, the activity change is inactive: 7.06%.

Regarding `O=C(NCC1(N2CCCCC2)CCCCC1)c1cc(F)c(F)cc1Cl`, the activity change was inactive: 0.402%.

Take `COc1ccc(C(=O)NCC2(N(C)C)CCCCC2)cc1`: the activity change was inactive: -1.53%.

As to `CCN1CCCC(OC(=O)C2(O)c3ccccc3C=Cc3ccccc32)C1` (stereo unspecified), the activity change was inactive: 1.01%.

`Cc1cc(C(=O)NCC2(N3CCCCC3)CCCCC2)ccc1[N+](=O)[O-]`: the activity change is inactive: -21%.

On to `O=C(NCC1(N2CCCCC2)CCCCC1)c1cccc(Br)c1`, for which the activity change is inactive: -5.26%.

On to `Cc1ccccc1C(=O)NCC1(N2CCCCC2)CCCCC1`, for which the activity change was inactive: -8.62%.

For `CN(C)c1ccc(C(=O)NCC2(N(C)C)CCCCC2)cc1`, the activity change was inactive: -0.888%.

Turning to `CN(C)C1CCCC1OC(=O)C(O)(c1ccccc1)c1ccccc1` (stereo unspecified), the activity change is inactive: 9.95%.

On to `COc1cccc(C(=O)NCC2(N3CCCCC3)CCCCC2)c1`, for which the activity change was inactive: 20.5%.

For `COc1ccc(Cl)cc1C(=O)NCC1(N(C)C)CCCCC1`, the activity change is inactive: -6.13%.

In the case of `O=C(NCC1(N2CCCCC2)CCCCC1)c1cccc(Cl)c1`, the activity change was inactive: 7.12%.

For `CN(C)C1(CNC(=O)c2ccc(Br)cc2)CCCCC1`, the activity change is inactive: 3.06%.

`COc1cc(C(=O)NCC2(N(C)C)CCCCC2)c([N+](=O)[O-])cc1OC`: the activity change was inactive: 7.72%.

Regarding `C=C(C)C#CC(O)(C(=O)OC1CCN(C)CC1)c1ccccc1` (stereo unspecified), the activity change was inactive: -0.584%.

For the compound `COc1ccc(Br)c(C(=O)NCC2(N3CCCCC3)CCCCC2)c1`, the activity change was inactive: -6.81%.

As for `CC(C)Oc1ccc(C(=O)NCC2(N(C)C)CCCCC2)cc1`, the activity change was inactive: -7.24%.

As to `O=C(OCCN1CCCC1)C(O)(c1ccccc1)c1ccccc1`, the activity change was inactive: 5.7%.

With `CN(C)c1cccc(C(=O)NCC2(N(C)C)CCCCC2)c1`, the activity change is inactive: -10.4%.

As for `O=C(OC1CN2CCC1CC2)C(CO)(c1ccccc1)c1ccccc1` (stereo unspecified), the activity change is inactive: -18.1%.
